According to patent publication US9226928B2, “Spirocyclic isoxazoline parasiticidal combinations” (Zoetis Services LLC, priority 2012, dated 2016):

Columns and labels:
[1] = test system: D. immitis (L3 inoculation, adult worm recovery); assay: Prevention of heartworm disease in dogs; details: in vivo
[2] = test system: A. maculatum ticks; assay: Efficacy against ticks in dogs; details: same groups
[3] = test system: C. felis fleas; assay: Efficacy against fleas in dogs; details: same groups

Compound	efficacy in prevention of heartworm disease (reduction in adult D. immitis worm counts relative to placebo) [1]	% Efficacy (reduction in geometric mean live ticks versus placebo) ([2]; Day 7) [%]	% Efficacy (reduction in geometric mean live ticks versus placebo) ([2]; Day 14) [%]	% Efficacy (reduction in geometric mean live ticks versus placebo) ([2]; Day 21) [%]	% Efficacy (reduction in geometric mean live ticks versus placebo) ([2]; Day 28) [%]	% Efficacy (reduction in geometric mean live ticks versus placebo) ([2]; Day 35) [%]	% Efficacy (reduction in geometric mean live flea counts versus placebo) ([3]; Day 7) [%]	% Efficacy (reduction in geometric mean live flea counts versus placebo) ([3]; Day 14) [%]	% Efficacy (reduction in geometric mean live flea counts versus placebo) ([3]; Day 21) [%]	% Efficacy (reduction in geometric mean live flea counts versus placebo) ([3]; Day 28) [%]	% Efficacy (reduction in geometric mean live flea counts versus placebo) ([3]; Day 35) [%]
CS(=O)(=O)CC(=O)N1CC2(C1)OCc1cc(C3=NO[C@@](c4cc(Cl)c(F)c(Cl)c4)(C(F)(F)F)C3)ccc12 [Compound A, (S)-1-(5′-(5-(3,5-dichloro-4-fluorophenyl)-5-(trifluoromethyl)-4,5-dihydroisoxazol-3-yl)-3′H-spiro[azetidine-3,1′-isobenzofuran]-1-yl)-2-(methylsulfonyl)ethanone]	virtually no reduction	100	99.1	98.7	100	100	100	100	100	100	100
CO/N=C1\C[C@]2(C[C@@H]3C[C@@H](C/C=C(\C)C[C@@H](C)/C=C/C=C4\CO[C@@H]5[C@H](O)C(C)=C[C@@H](C(=O)O3)[C@]45O)O2)O[C@H](/C(C)=C/C(C)C)[C@H]1C [Moxidectin, moxidectin]		0	0	0	0	0	8.7	12.0	2.8	16.1	11.3
